Data published in the Kinase Knowledgebase extract (Sharma et al. 2016).

Protein sequences, listed by entry. Tags and fused reporters are not part of them. Lines headed by an entry give the natural chain unless they say otherwise; changes in a name come on top.
UniProt P42338: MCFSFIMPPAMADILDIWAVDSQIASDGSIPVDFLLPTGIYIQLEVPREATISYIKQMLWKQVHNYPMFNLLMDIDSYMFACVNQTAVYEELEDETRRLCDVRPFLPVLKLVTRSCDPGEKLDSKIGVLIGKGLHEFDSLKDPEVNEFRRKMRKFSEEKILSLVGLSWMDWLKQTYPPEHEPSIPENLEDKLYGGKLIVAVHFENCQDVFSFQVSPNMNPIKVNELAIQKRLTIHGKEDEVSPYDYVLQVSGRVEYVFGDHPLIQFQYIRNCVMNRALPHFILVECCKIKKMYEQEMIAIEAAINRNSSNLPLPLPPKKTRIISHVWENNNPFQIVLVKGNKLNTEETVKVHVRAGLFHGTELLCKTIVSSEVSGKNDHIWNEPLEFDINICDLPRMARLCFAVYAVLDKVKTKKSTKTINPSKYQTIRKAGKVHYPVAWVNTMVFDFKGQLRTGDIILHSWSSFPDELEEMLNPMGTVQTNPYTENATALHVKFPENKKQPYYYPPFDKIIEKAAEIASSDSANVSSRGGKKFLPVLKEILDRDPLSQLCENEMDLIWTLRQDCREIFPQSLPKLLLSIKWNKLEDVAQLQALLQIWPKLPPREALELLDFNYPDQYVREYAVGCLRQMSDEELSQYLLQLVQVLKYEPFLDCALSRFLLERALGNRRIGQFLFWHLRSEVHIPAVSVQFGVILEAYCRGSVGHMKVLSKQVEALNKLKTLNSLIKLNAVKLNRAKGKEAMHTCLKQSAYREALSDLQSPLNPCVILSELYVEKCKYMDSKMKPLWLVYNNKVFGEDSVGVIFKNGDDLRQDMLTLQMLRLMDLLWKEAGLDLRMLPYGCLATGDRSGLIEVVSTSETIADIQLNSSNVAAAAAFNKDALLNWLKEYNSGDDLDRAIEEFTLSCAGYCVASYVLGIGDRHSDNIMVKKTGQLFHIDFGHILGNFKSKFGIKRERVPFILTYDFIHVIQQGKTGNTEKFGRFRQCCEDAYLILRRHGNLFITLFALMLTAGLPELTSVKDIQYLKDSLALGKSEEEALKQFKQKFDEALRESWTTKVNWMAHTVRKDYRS

Target: PIK3CB (Human) (UniProt P42338)
Assay: Inhibition of PIK3CB Kinase Activity

IC50: 7 nM and 10 nM
SMILES: Cc1cc(C(C)Nc2ccccc2)c2nc(N3CCOCC3)cc(=O)n2c1 (stereo unspecified)

Several values for one entry are separate records, joined by “and”; a condition that tells them apart may be missing. Equal values may be shown once.
